These results are taken from publication PMC6162344.

This assay concerns the target T1, CENP-R (human), Q13352.
T1 chain: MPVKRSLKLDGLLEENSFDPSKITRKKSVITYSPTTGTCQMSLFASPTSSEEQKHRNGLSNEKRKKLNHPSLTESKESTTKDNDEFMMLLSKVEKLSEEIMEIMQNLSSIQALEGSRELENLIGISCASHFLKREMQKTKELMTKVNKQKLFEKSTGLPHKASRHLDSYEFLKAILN
Kind of assay: AUC. Particulars: remark: other sources report otherwise.

B1: CENP-R, Q13352 1-177 (natural protein)
chain: T1 chain
For orientation: stoichiometry N means the number of molecules, sites or subunits per partner or assembly. As to B1, the stoichiometry N amounted to 4.
